The record followed here is ChEMBL document CHEMBL1138885, “Further structural exploration of trisubstituted asymmetric pyran derivatives (2S,4R,5R)-2-benzhydryl-5-benzylamino-tetrahydropyran-4-ol and their corresponding disubstituted (3S,6S) pyran derivatives: a proposed pharmacophore model for high-affinity interaction with the dopamine, serotonin, and …” (J Med Chem, 2006).

Sequences of proteins named here, by UniProt entry; tags and fusion partners are left off.
UniProt Q9WTR4, whole entry: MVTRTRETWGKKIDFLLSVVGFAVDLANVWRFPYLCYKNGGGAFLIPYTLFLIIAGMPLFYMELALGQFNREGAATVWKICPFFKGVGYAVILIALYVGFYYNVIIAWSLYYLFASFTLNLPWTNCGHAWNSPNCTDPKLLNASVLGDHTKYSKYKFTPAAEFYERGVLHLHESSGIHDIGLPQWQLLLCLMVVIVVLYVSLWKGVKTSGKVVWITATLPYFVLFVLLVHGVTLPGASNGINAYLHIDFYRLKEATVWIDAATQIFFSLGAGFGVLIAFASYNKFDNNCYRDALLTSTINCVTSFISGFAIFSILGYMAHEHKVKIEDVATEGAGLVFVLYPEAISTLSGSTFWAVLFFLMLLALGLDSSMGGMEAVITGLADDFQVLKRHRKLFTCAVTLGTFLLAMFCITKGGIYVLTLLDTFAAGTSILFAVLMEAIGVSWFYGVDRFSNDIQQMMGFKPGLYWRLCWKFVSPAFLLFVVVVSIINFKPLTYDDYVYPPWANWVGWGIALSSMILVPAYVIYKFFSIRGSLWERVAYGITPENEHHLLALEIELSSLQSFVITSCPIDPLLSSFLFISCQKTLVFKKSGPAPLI
UniProt P23977, whole entry: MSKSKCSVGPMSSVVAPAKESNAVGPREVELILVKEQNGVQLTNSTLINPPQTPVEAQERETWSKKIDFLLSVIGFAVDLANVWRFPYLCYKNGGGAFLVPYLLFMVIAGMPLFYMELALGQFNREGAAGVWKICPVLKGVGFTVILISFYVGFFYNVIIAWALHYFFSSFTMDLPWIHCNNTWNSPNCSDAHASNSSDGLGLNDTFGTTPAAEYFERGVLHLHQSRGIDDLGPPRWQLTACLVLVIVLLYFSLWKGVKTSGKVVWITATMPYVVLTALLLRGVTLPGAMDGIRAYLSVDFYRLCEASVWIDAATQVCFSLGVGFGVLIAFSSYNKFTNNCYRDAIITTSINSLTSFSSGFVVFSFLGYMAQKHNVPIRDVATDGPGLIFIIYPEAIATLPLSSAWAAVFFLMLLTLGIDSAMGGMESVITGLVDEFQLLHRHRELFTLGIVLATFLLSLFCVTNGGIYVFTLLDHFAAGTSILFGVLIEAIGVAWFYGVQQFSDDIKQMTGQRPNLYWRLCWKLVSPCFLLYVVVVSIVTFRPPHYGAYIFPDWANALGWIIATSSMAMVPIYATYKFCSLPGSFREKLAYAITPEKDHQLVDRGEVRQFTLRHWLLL
UniProt P31652, whole entry: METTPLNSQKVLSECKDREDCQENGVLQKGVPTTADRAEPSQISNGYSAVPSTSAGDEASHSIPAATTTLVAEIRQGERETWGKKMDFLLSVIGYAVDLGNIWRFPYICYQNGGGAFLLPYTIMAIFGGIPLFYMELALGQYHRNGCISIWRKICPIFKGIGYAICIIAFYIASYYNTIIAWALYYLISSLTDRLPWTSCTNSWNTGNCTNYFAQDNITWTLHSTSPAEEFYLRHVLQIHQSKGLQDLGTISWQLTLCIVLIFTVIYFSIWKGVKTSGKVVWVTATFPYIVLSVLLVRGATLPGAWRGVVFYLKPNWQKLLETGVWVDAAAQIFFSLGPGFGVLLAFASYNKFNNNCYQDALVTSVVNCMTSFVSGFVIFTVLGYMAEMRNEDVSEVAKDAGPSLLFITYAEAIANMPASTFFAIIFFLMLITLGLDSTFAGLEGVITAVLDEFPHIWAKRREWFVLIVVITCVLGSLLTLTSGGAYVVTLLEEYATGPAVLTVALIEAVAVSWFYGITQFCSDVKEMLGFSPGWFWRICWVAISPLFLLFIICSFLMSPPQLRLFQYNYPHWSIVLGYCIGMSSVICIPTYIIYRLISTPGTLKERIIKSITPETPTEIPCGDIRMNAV

What all share (format): tissue-based
Experiment [1] addresses Norepinephrine transporter (Rattus norvegicus, UniProt Q9WTR4). Kind of experiment: Inhibition of NET-mediated [3H]NE uptake in rat cerebral cortex. In short, it runs like this:
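[3H]DA, [3H]5-HT or [3H]NE accumulation measured; SERT and NET uptake in rat cerebral cortex. Nonspecific uptake defined with cocaine (DAT), citalopram (SERT) or desipramine (NET). […] Three to eight independent experiments in triplicate, mean ± SEM.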

Experiment [2] deals with T1, Sodium-dependent dopamine transporter (Rattus norvegicus, UniProt P23977). Briefly: Inhibition of [3H]WIN-35428 binding to rat striatum DAT. An outline of the steps:
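DAT radioligand binding with nonspecific binding defined by cocaine. Compounds dissolved in DMSO, diluted in 10% (v/v) DMSO, final 0.5% DMSO. At least five concentrations, each in triplicate, spaced evenly around the IC50.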

Experiment [3] concerns the target T1, Sodium-dependent dopamine transporter. Kind of experiment: Inhibition of DAT-mediated [3H]DA uptake in rat striatum. In short, it runs like this:
(§1)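 [3H]DA, [3H]5-HT or [3H]NE accumulation measured; SERT and NET uptake in rat cerebral cortex. Nonspecific uptake defined with cocaine (DAT), citalopram (SERT) or desipramine (NET). Three to eight independent experiments in triplicate, mean ± SEM.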

Experiment [4] deals with Sodium-dependent serotonin transporter (Rattus norvegicus, UniProt P31652). Kind of experiment: Inhibition of SERT-mediated [3H]5-HT uptake in rat cerebral cortex. In short, it runs like this:
as §1

SMILES strings stand for the structures.

Usually Ki stands for a dissociation constant, usually derived from enzyme kinetics or from competition with a known ligand. High values mean a looser hold on the target, low ones a stronger hold on the target. Take `Nc1ccc(CN[C@@H]2CC[C@H](C(c3ccccc3)c3ccccc3)OC2)cc1`: the Ki in experiment [1] stood at 25.6 nM; in experiment [2] it was 118 nM; in experiment [3], 43.9 nM; in experiment [4] it was 45.7 nM.
`COc1ccc(CN[C@@H]2CO[C@H](C(c3ccccc3)c3ccccc3)C[C@H]2O)cc1` displayed a Ki in experiment [2] of 183 nM.
Regarding `Nc1ccc(CN[C@H]2CC[C@@H](C(c3ccccc3)c3ccccc3)OC2)cc1`, the Ki was 12.6 nM in experiment [1], 142 nM in experiment [2], 62.4 nM in experiment [3] and 16.1 nM in experiment [4].
As to `O[C@H]1C[C@H](C(c2ccccc2)c2ccccc2)OC[C@@H]1NCc1ccc2[nH]ccc2c1`, the inhibition constant (Ki) in experiment [4] is 223 nM.
In the case of `Oc1ccc(CN[C@H]2CO[C@@H](C(c3ccccc3)c3ccccc3)C[C@@H]2O)cc1`, the inhibition constant Ki was 125 nM in experiment [2], 91.5 nM in experiment [3] and 2540 nM in experiment [4].
With `O=[N+]([O-])c1ccc(CN[C@H]2CC[C@@H](C(c3ccccc3)c3ccccc3)OC2)cc1`, the inhibition constant Ki in experiment [1] is 54.3 nM; in experiment [4] it was 19.9 nM.
In experiment [4], `O[C@@H]1C[C@@H](C(c2ccccc2)c2ccccc2)OC[C@H]1NCc1ccc2[nH]ccc2c1` registered a Ki of 15.3 nM.
`Oc1ccc(CN[C@H]2CC[C@@H](C(c3ccccc3)c3ccccc3)OC2)cc1` yielded an inhibition constant Ki in experiment [1] of 5.09 nM.
On the same count and under the same terms, next, `Oc1ccc(CN[C@@H]2CC[C@H](C(c3ccccc3)c3ccccc3)OC2)cc1`: 40.9 nM.
As to `Oc1ccc(CN[C@@H]2CO[C@H](C(c3ccccc3)c3ccccc3)C[C@H]2O)cc1`, the inhibitory constant (Ki) in experiment [2] was found to be 234 nM; in experiment [3] it was 172 nM; in experiment [4], 237 nM.
As for `O=[N+]([O-])c1ccc(CN[C@@H]2CC[C@H](C(c3ccccc3)c3ccccc3)OC2)cc1`, the figures for the Ki in experiment [1] and in experiment [4] were 81.6 nM and 64.6 nM, respectively.
